Measured affinities in a library of Ab-14 light chain variants

From the AlphaSeq antibody data of Li et al. 2023 (doi:10.1038/s41467-023-39022-2), copy in the FLAb collection.

The target is the same throughout: PDVDLGDISGINAS, from the HR2 region of SARS-CoV-2 spike.

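The parent was found by panning a naive human phage display library on the peptide. Designed CDR sequences, proposed from the first random library and measured here. Their group label is 14L_GP_Gibbs (GP: Gaussian process model; Gibbs: Gibbs sampling; a sequence that several methods proposed may carry one label only). The scFvs were displayed on barcoded MATa yeast, the peptide on MATalpha yeast. Mating (16 h, 30 °C) was followed by selection of diploids and sequencing of their barcodes. Read counts were normalised to the haploid input and turned into Kd by a linear fit to BCL2-family pairs of known affinity, for each replicate. There are six technical replicates.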

Parent scFv Ab-14: VH joined to VL by a (GGGGS)3 linker. Changes lie in the light chain CDRs alone.
VH: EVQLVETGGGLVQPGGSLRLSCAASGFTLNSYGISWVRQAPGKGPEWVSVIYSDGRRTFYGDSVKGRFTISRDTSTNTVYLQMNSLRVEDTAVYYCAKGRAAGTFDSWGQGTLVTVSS
VL: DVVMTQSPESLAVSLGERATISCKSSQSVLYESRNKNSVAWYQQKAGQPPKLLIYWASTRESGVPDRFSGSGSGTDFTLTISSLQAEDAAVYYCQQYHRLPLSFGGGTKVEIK

Each variant's VL is given in full.
Scale: log10 of Kd in nM, estimated from mating counts; low values are strong binders.
Where no diploid with the target was found in that replicate, the entry reads "nd": below detection, most likely a poor binder, though not proof of it.

VL,"replicates, log10 nM",empty controls
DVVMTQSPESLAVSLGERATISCKLQFSCLYESRNQNSVAWYQQKAGQPPKLLIYSASYRLSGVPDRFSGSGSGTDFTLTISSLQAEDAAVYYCQQYHRLPLSFGGGTKVEIK,2.51 1.40 1.73 2.32 1.52 1.26,2/18 (2.43)
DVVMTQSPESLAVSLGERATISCKFEQQDLYSSRNKNSVAWYQQKAGQPPKLLIYNASTRSQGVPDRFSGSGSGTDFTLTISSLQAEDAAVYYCQQYHRLPLSFGGGTKVEIK,-0.11 -0.14 -0.35 -0.52 -0.22 -0.01,1/18 (2.40)
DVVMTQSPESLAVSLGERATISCKLQYLVLYGSRNKNSVAWYQQKAGQPPKLLIYNASTRLQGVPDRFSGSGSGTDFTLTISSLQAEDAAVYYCQQYHRLPLSFGGGTKVEIK,0.83 1.01 1.00 0.54 1.09 0.89,1/18 (1.73)
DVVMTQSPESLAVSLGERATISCKLSQSDGYEQRNSNSVAWYQQKAGQPPKLLIYEASTREDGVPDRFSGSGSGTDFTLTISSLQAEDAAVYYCQQYHRLPLSFGGGTKVEIK,0.52 0.47 0.46 0.32 0.55 0.00,3/18 (2.02)
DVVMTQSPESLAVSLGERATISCKFSQSEDYESRNKWSVAWYQQKAGQPPKLLIYNASTRMQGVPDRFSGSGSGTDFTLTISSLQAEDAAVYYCQQYHRLPLSFGGGTKVEIK,0.10 -0.04 -0.06 -0.30 -0.14 0.08,1/18 (2.83)
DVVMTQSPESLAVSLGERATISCKCSLSVEYLSRQKNSVAWYQQKAGQPPKLLIYHASTRESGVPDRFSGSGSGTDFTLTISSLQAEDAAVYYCQQYHRLPLSFGGGTKVEIK,0.54 0.79 0.52 0.89 1.47 0.25,0/18
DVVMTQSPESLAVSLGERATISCKFQQMVMMGDRNKNSVAWYQQKAGQPPKLLIYWASQRLQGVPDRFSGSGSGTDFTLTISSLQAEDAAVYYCQQYHRLPLSFGGGTKVEIK,1.79 0.97 0.96 1.40 0.81 0.82,2/18 (2.95)
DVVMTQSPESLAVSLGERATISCKVKQSWLYESRMSNNVAWYQQKAGQPPKLLIYNASKRESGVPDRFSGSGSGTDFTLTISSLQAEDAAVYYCQQYHRLPLSFGGGTKVEIK,0.41 0.38 -0.06 -0.01 0.09 0.06,3/18 (2.41)
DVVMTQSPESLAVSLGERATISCKLSQSWLYEQRNVNSVAWYQQKAGQPPKLLIYNASKRLLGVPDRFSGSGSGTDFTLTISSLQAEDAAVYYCQQYHRLPLSFGGGTKVEIK,0.18 0.02 -0.21 -0.31 0.03 -0.02,0/18
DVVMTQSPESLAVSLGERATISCFMSQSVLMEGRNDNSVAWYQQKAGQPPKLLIYDASTREDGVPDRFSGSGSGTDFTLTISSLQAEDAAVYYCQQYHRLPLSFGGGTKVEIK,0.05 -0.03 -0.26 -0.11 -0.01 0.05,0/18
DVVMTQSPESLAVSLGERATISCKLPQSQEYESRNKNSVAWYQQKAGQPPKLLIYEASTRELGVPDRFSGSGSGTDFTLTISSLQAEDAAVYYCQQYHRLPLSFGGGTKVEIK,0.25 0.12 0.07 -0.12 -0.22 0.06,0/18
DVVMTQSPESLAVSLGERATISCKIQQFYEGESRNKNSVAWYQQKAGQPPKLLIYSASTRMSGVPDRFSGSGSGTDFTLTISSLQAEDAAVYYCQQYHRLPLSFGGGTKVEIK,0.36 0.34 0.01 0.21 0.10 0.40,0/18
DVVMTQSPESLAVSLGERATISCKLSQSVLMESRMVNNVAWYQQKAGQPPKLLIYDASQREEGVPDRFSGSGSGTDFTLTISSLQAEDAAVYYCQQYHRLPLSFGGGTKVEIK,0.25 0.11 0.00 -0.07 -0.17 0.08,1/18 (2.20)
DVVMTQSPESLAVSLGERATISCKLEQSVMLESRNVNSVAWYQQKAGQPPKLLIYSASRRELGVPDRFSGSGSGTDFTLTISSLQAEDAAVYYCQQYHRLPLSFGGGTKVEIK,0.23 0.25 -0.01 -0.09 0.12 0.06,0/18
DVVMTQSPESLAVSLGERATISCKLSQSMLYESRNDNSVAWYQQKAGQPPKLLIYQASTREDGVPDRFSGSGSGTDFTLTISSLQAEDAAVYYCQDYHRLPLTFGGGTKVEIK,0.30 0.50 0.56 -0.06 0.42 0.58,1/18 (4.42)
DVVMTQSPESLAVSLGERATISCILSMSELYGDRMKNSVAWYQQKAGQPPKLLIYNASQRESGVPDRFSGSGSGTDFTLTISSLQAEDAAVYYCQQYHRLPLSFGGGTKVEIK,0.36 0.03 0.08 -0.21 0.20 0.26,1/18 (3.06)
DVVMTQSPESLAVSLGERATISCALSQSELYESRMKNSVAWYQQKAGQPPKLLIYNASTREDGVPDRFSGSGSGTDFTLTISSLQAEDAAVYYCQQYHRLPLSFGGGTKVEIK,0.23 0.39 0.20 0.24 0.29 0.26,2/18 (2.86)
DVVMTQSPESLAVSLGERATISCWLSMSVMLESRNVNSVAWYQQKAGQPPKLLIYSASTRELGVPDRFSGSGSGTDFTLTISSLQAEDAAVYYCQQYHRLPLSFGGGTKVEIK,nd nd nd nd nd nd,0/18
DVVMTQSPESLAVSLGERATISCKLDQSVMLWSRNKNSVAWYQQKAGQPPKLLIYEASTRMSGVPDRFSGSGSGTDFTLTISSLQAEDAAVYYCQDYHRLPLSFGGGTKVEIK,0.61 0.11 0.10 0.29 0.18 0.38,1/18 (4.17)
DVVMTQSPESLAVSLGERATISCKSFFSVPGESRNKNSVAWYQQKAGQPPKLLIYEASTRESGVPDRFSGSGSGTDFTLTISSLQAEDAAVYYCQQYHRLPLSFGGGTKVEIK,0.53 0.42 0.48 0.07 0.44 0.35,0/18
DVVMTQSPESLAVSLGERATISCKLSKMVMYESRNKNSVAWYQQKAGQPPKLLIYSASTREEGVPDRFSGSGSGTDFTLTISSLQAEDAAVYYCQQYHRLPLSFGGGTKVEIK,0.43 0.63 0.49 0.41 0.51 0.67,0/18
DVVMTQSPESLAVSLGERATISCKLMQMPLYESRNANSVAWYQQKAGQPPKLLIYNASTREEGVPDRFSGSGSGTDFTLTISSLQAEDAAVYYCQQYHRLPLSFGGGTKVEIK,0.51 0.15 0.35 -0.11 0.36 0.57,0/18
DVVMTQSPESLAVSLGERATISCKLQWSWLMQSRNKNSVAWYQQKAGQPPKLLIYHASMRESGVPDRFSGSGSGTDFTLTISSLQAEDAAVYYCQQYHRLPLSFGGGTKVEIK,0.88 1.01 1.34 1.29 1.12 1.29,0/18
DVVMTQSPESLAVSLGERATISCKLMQEDEYQSRNKNSVAWYQQKAGQPPKLLIYHASLRESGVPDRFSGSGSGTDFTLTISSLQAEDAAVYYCQQYHRLPLSFGGGTKVEIK,-1.12 -0.78 -0.28 -0.86 -0.82 -0.17,0/18
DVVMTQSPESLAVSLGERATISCTLQQSWEYESRNKNSVAWYQQKAGQPPKLLIYNGSQREDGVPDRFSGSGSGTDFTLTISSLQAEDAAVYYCQQYHRLPLSFGGGTKVEIK,-0.21 -0.37 -0.28 -0.39 -0.31 -0.31,0/18

Background: pairings of all light chain designs with three empty control strains gave a value in 4% of cases (median 2.64, 5th percentile 1.59). Values in that range, when seen in few replicates, are hard to tell from nonspecific mating. For each scFv, signals with the empty controls are counted beside the result, with their mean in brackets.
In the paper, a design with two or fewer of six values counts as a poor binder.
Values of this round are not directly comparable with the first-round values of the same sequences.